ChEMBL document CHEMBL1152717, “Discovery of mu-opioid selective ligands derived from 1-aminotetralin scaffolds made via metal-catalyzed ring-opening reactions” (Bioorg Med Chem Lett, 2009)

Sequences of proteins named here, by UniProt entry; tags and fusion partners are left off.
UniProt P35372, whole entry: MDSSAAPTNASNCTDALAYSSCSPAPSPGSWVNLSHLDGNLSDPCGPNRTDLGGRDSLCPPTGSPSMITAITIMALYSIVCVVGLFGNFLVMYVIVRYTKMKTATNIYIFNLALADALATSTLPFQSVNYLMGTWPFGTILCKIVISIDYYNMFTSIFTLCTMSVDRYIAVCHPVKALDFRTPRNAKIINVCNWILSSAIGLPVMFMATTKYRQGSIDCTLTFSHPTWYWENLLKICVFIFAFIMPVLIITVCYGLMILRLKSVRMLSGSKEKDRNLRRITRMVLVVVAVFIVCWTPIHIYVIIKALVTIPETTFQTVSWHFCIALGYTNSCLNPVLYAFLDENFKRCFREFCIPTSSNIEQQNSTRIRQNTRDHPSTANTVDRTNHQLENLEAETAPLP
UniProt P41145, whole entry: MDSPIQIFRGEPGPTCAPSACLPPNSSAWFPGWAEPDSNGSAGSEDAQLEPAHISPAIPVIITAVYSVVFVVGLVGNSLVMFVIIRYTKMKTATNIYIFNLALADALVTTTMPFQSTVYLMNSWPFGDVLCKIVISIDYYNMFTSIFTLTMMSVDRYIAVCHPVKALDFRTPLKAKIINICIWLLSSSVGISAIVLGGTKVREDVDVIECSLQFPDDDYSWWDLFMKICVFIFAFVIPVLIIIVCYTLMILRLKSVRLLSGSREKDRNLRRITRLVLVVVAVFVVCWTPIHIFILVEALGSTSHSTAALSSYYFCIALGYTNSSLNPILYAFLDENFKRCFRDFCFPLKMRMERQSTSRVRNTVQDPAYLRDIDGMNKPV
UniProt P41143, whole entry: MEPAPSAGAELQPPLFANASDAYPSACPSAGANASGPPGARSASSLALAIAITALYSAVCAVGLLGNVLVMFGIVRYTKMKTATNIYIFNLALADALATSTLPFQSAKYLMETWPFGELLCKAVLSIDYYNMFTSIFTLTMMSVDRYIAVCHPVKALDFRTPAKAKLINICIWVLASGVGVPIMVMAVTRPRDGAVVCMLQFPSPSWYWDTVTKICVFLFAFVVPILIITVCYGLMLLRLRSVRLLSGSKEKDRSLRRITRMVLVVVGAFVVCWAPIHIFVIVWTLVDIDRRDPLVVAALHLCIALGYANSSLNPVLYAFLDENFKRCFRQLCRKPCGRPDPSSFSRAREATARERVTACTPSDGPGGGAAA

Tests used:
Mu-type opioid receptor [1] = biological target: T1, Mu-type opioid receptor (Homo sapiens, UniProt P35372); experiment: Displacement of [125I]FK33824 from human cloned mu opioid receptor
[2] = biological target: Kappa-type opioid receptor (Homo sapiens, UniProt P41145); experiment: Displacement of [125I]U69593 from human cloned kappa opioid receptor
[3] = biological target: Delta-type opioid receptor (Homo sapiens, UniProt P41143); experiment: Displacement of [125I]deltorphin 2 from human cloned delta opioid receptor
Mu-type opioid receptor [4] = biological target: T1, Mu-type opioid receptor

COCCN(C(=O)c1ccco1)C1c2ccccc2C=CC1N1CCN(c2ccccc2)CC1 (stereo not drawn)
IC50 (Mu-type opioid receptor [1]): 0.126 µM | IC50 [2]: > 10 µM | IC50 [3]: 3.95 µM | EC50 (Mu-type opioid receptor [4]): > 90 µM

COCCN(C(=O)c1ccc(Cl)c(Cl)c1)C1c2cc(OC)c(OC)cc2CCC1N(C)C (stereo not drawn)
IC50 (Mu-type opioid receptor [1]): 0.351 µM | IC50 [2]: 6 µM | IC50 [3]: 3.5 µM | EC50 (Mu-type opioid receptor [4]): > 90 µM
